Values joined by “and” are separate entries in the source; they are usually repeats but may differ in a detail not shown here. Equal entries are not always repeated. Where two headings read alike, the source gives them in different places.
Key:
[1] = cited from earlier work
[2] = Plasma pharmacokinetics of CRLX101 (total, polymer-conjugated and polymer-unconjugated CPT); details: for Conjugated CPT Concentration: cycle 1, per subject; for AUCINF, Un (polymer-unconjugated CPT) / CMAX, Con (polymer-conjugated CPT) / CMAX, Con+Un (total CPT) / CMAX, Un (polymer-unconjugated CPT) / AUCINF, Con (polymer-conjugated CPT) / AUCINF, Con+Un (total CPT) / CL, Con+Un / T1/2, Con+Un / VSS, Con+Un: arithmetic mean
[3] = test system: HER-2 negative gastric cancer; details: 9 patients with evaluable biopsies, 24 to 48 hours after a single dose of CRLX101; cited from earlier work
[4] = test system: bone marrow; details: preclinical models; cited from earlier work
[5] = test system: dog; details: ref CRLX101 Investigators Brochure; cited from earlier work
[6] = test system: treated subjects; details: cited from earlier work
[7] = test system: rat; details: ref CRLX101 Investigators Brochure; cited from earlier work
[8] = test system: patients with advanced solid malignancies; details: cited from earlier work
[9] = test system: NSCLC; details: cited from earlier work
[10] = Cycle 1, N 24, CRLX101 12 mg/m2 1 h IV infusion
[11] = CRLX101 plus BSC group (10 subjects)

For Poly-CD-PEG-Camptothecin [CRLX101], the stability of vials ([1]; stored at refrigerated conditions (2° - 8°C)) is given as “at least 3 years”, the “stability of the reconstituted solution” value ([1]; stored at room temperature) is given as 24 h and the “Conjugated CPT Concentration” value ([2]; 0.5 hours after start of first CRLX101 dose) is given as 3119.29 ng/mL and 2451.39 ng/mL and 2241.49 ng/mL and 2750.17 ng/mL and 2734.98 ng/mL and 2981.64 ng/mL. For the same substance, the “Conjugated CPT Concentration” value ([2]; 1 hours after start of first CRLX101 dose) was 5569.85 ng/mL and 5050.3 ng/mL and 6129.31 ng/mL and 5729.59 ng/mL and 6505.1 ng/mL and 5215.43 ng/mL and 6105 ng/mL and 4884.43 ng/mL, the “Conjugated CPT Concentration” value ([2]; 2 hours after start of first CRLX101 dose) was 4937.83 ng/mL and 4866.01 ng/mL and 4003.54 ng/mL and 5279.84 ng/mL and 4668.73 ng/mL and 5287.52 ng/mL and 4867.01 ng/mL and 4710.51 ng/mL and the “Conjugated CPT Concentration” value ([2]; 3 hours after start of first CRLX101 dose) was 4147.25 ng/mL and 3757.7 ng/mL and 4709.06 ng/mL and 4705.75 ng/mL and 5113.41 ng/mL and 5094 ng/mL and 4061.93 ng/mL and 4336.58 ng/mL and 3673.43 ng/mL. For the same substance, the “Conjugated CPT Concentration” value ([2]; 13 hours after start of first CRLX101 dose) was 2867.48 ng/mL and 3141.48 ng/mL and 3123.58 ng/mL and 2802.9 ng/mL and 3170.09 ng/mL, the “Conjugated CPT Concentration” value ([2]; 25 hours after start of first CRLX101 dose) was 1589.33 ng/mL and 1900.57 ng/mL and 2533.11 ng/mL and 2099.85 ng/mL and 1961.48 ng/mL and 1857.1 ng/mL and 1589.85 ng/mL and the “Conjugated CPT Concentration” value ([2]; 50 hours after start of first CRLX101 dose) was 628.56 ng/mL and 685.94 ng/mL and 1045.86 ng/mL and 928.07 ng/mL and 833.06 ng/mL. The “AUCINF, Un (polymer-unconjugated CPT)” value ([2]; Cycle 1, 4 patients excluded) was 25,418.6 hr*ng/mL, the “CMAX, Con (polymer-conjugated CPT)” value [2, 10] was 5230 ng/mL and the “CMAX, Con+Un (total CPT)” value [2, 10] was 5,406 ng/mL. The “CMAX, Un (polymer-unconjugated CPT)” value [2, 10] was 266.9 ng/mL, the “AUCINF, Con (polymer-conjugated CPT)” value ([2]; Cycle 1, one patient excluded) was 168,737 hr*ng/mL and the “AUCINF, Con+Un (total CPT)” value ([2]; Cycle 1, one patient excluded) was 194,928 hr*ng/mL. The “CL, Con+Un” value ([2]; Cycle 1, one patient excluded) was 0.117 L/h, the “T1/2, Con+Un” value ([2]; Cycle 1, one patient excluded) was 47.42 h and the “VSS, Con+Un” value ([2]; Cycle 1, one patient excluded) was 6.40 L. For the same substance, the “AUCINF, Con (polymer-conjugated CPT)” value ([2]; Cycle 6, N 5) was 158,014 hr*ng/mL, the “AUCINF, Con+Un (total CPT)” value ([2]; Cycle 6, N 5) was 173,181 hr*ng/mL and the “CL, Con+Un” value ([2]; Cycle 6, N 5) was 0.0944 L/h. For the same substance, the “CMAX, Con (polymer-conjugated CPT)” value ([2]; Cycle 6, N 5) was 4,989 ng/mL, the “CMAX, Con+Un (total CPT)” value ([2]; Cycle 6, N 5) was 5,115 ng/mL and the “CMAX, Un (polymer-unconjugated CPT)” value ([2]; Cycle 6, N 5) was 180.6 ng/mL. The “T1/2, Con+Un” value ([2]; Cycle 6, N 5) was 37.17 h, the “VSS, Con+Un” value ([2]; Cycle 6, N 5) was 4.36 L and the “AUCINF, Un (polymer-unconjugated CPT)” value ([2]; Cycle 6, one patient excluded) was 22,294.5 hr*ng/mL. For the same substance, the “PK of CRLX101 compared with that expected for camptothecin” value ([2]; comparison ref 38) was “lower maximum concentration, longer elimination half-life, higher area under the curve, smaller volume of distribution, and slower plasma clearance”, the “patients with clear evidence of CPT within the post-treatment tumor” value [3] was 7 and the “patients with potential evidence of CPT in the post-treatment normal tissue” value [3] was “one”. For the same substance, the “time by which most CRLX101 is cleared from the bone marrow” value [4] was at most 24 h, the Dose-limiting toxicity [5] was “largely body weight losses” and the Infusion-related hypersensitivity reactions ([6]; 10 of the 218 subjects who received required pre-medications, all Grade 1 or 2) was 5%. The Infusion-related hypersensitivity reactions ([6]; 13 of the 280 treated subjects) was 5%, the Dose-limiting toxicity [7] was “largely body weight losses” and the “Grade 3/4 related TEAEs at time of infusion” value ([8]; Study CRLX-001, 3 subjects, none received pre-medication) was 5%. The TEAE fatigue ([8]; Study CRLX-001, all subjects (31 subjects)) was 50%, the TEAE anemia ([8]; Study CRLX-001, all subjects) was 23% and the TEAE constipation ([8]; Study CRLX-001, all subjects) was 24%. The TEAE cough ([8]; Study CRLX-001, all subjects) was 24%, the TEAE cystitis ([8]; Study CRLX-001, all subjects) was 27% and the TEAE decreased appetite ([8]; Study CRLX-001, all subjects) was 23%. For the same substance, the TEAE dyspnea ([8]; Study CRLX-001, all subjects) was 21%, the TEAE dysuria ([8]; Study CRLX-001, all subjects) was 23% and the TEAE nausea ([8]; Study CRLX-001, all subjects) was 29%. The Dose-limiting toxicity ([8]; bi-weekly dosing, ref protocol [15]) was “myelosuppression”, the TEAE cystitis [9, 11] was 10% and the TEAE fatigue [9, 11] was 10%. For the same substance, the TEAE nausea ([9]; CRLX101 plus BSC group (11 subjects)) was 11%, the TEAE cough ([9]; CRLX101 plus BSC group (14 subjects)) was 14% and the TEAE dyspnea ([9]; CRLX101 plus BSC group (17 subjects)) was 18%. The TEAE anemia ([9]; CRLX101 plus BSC group (25 subjects)) was 26%.

Reference: paper PMC12559310, “Tumor-targeted top1 inhibitor delivery with optimized parp inhibition in advanced solid tumors: a phase i trial of gapped scheduling” (Nature Communications, 2025)
